The substances below were run on C[C@@H]1O[C@@H]1P(=O)(O)O (assay: purified protein). Conditions: 1 mM ATP, 10 mM MgCl2, 100 mM KCl, pH 7.2, 25 °C.

In order of falling Km:
1. FomA (fosfomycin resistance kinase FomA) (Streptomyces wedmorensis; S149A)  383.2 ± 45.3 µM
2. FomA (fosfomycin resistance kinase FomA) (Streptomyces wedmorensis; S148A)  169.8 ± 22.2 µM
3. FomA (fosfomycin resistance kinase FomA) (Streptomyces wedmorensis; K9A)  23.1 ± 3.1 µM
4. FomA (fosfomycin resistance kinase FomA) (Streptomyces wedmorensis; D208A)  17.5 ± 2.5 µM

In order of rising kcat:
1. FomA (fosfomycin resistance kinase FomA) (Streptomyces wedmorensis; K9A)  4.5 ± 0.3 s⁻¹
2. FomA (fosfomycin resistance kinase FomA) (Streptomyces wedmorensis; D208A)  11.9 ± 0.4 s⁻¹
3. FomA (fosfomycin resistance kinase FomA) (Streptomyces wedmorensis; S149A)  14.5 ± 2.2 s⁻¹
4. FomA (fosfomycin resistance kinase FomA) (Streptomyces wedmorensis; S148A)  35.0 ± 2.6 s⁻¹

Reference: PMC3153955
